Reference: PubChem BioAssay AID588675 (Johns Hopkins Ion Channel Center, 2011)
The list shows a part of the results, in another mix than the full data. Active and inactive are the calls of the source.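 Rule for the calls: active = plate-corrected calcium response at least 3 library SD above typical, normal starting fluorescence, not activating the receptor alone; inactive = the rest.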

Sequences of proteins named here, by UniProt entry; tags and fusion partners are left off. A change or cut given only in a name is not applied to a line headed by its entry.
UniProt Q96LB2: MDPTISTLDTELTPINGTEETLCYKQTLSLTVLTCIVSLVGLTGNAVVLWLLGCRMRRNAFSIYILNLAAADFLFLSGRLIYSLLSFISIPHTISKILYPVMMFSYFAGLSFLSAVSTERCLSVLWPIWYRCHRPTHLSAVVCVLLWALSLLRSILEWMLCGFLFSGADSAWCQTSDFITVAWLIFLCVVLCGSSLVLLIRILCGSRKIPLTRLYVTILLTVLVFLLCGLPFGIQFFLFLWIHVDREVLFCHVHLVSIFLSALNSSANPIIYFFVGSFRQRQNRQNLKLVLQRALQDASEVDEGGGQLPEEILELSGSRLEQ

molecular target: Mas-related G-protein coupled receptor member X1 (Homo sapiens) (UniProt Q96LB2); assay: allosteric enhancers of human MrgX1 signaling – HEK293 cells, Fluo-4 calcium flux, primary screen (AID 588675); conditions: MrgX1-HEK293, Fluo-4 calcium flux, FDSS; at 10 µM; stronger effect = higher value;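 note: compound read alongside a low EC10 to EC30 dose of BAM8-22 agonist; peak minus trough fluorescence over baseline measured at the second addition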

Structure (SMILES)	B-score
CCc1nc2c(n1)c1c(non1O)c1c2no[n+]1[O-]	active: 8.69
CN(C)C(=O)OCCc1n(C)cc[n+]1C	active: 6.62
